The record followed here is ChEMBL document CHEMBL1146051, “Novel inhibitors of hepatitis C NS3-NS4A serine protease derived from 2-aza-bicyclo[2.2.1]heptane-3-carboxylic acid” (Bioorg Med Chem Lett, 2006).

SMILES strings stand for the structures.

The nature of the test: Selectivity for HNE over HCV NS3 protease.

Consider `CN(C)C(=O)[C@@H](NC(=O)CNC(=O)C(=O)C(CC1CCC1)NC(=O)[C@@H]1C2CCC(C2)N1C(=O)[C@@H](NC(=O)NC(C)(C)C)C(C)(C)C)c1ccccc1` (stereo partly specified), for which the Ratio Ki(app) is 420.
